Test results: patent US9023354B2, “Combination therapy with MDM2 and EFGR inhibitors” (priority 2010, dated 2015)

Tested on: A549 cells
Assay: DNA fragmentation (Cell Death Detection ELISA), measurement of apoptosis
Conditions: Homo sapiens; for activation at 1 µM: A549, read-out: % Inc. Relative to Staurosporin (500 nM), DNA fragmentation

Row | SMILES | activation at 1 µM [%] | activation at 10 µM (A549, read-out: % Inc. over Background, DNA fragmentation) [%]
1 | Cc1cc(Cl)cnc1NC(c1cccc(Cl)c1Cl)c1ccc2cccnc2c1O (stereo not drawn) [AD4-13147] | 48 | 
2 | Oc1c(C(Nc2cc(Cl)c(Cl)cn2)c2ccc(Cl)cc2Cl)ccc2cccnc12 (stereo not drawn) [AD4-13178] | 47 | 
3 | Cc1nc(NC(c2ccc(Cl)cc2)c2ccc3cccnc3c2O)ccc1Cl (stereo not drawn) [AD4-13161] |  | 688
